This is an account of results in PMC7801380, “Development of phenotypic assays for identifying novel blockers of L-type calcium channels in neurons” (Scientific Reports, 2021).

The chains behind the UniProt entries cited, without tags or fusion partners. Residues count along the entry.
UniProt Q13936, 1-2138 isoform Q13936-12: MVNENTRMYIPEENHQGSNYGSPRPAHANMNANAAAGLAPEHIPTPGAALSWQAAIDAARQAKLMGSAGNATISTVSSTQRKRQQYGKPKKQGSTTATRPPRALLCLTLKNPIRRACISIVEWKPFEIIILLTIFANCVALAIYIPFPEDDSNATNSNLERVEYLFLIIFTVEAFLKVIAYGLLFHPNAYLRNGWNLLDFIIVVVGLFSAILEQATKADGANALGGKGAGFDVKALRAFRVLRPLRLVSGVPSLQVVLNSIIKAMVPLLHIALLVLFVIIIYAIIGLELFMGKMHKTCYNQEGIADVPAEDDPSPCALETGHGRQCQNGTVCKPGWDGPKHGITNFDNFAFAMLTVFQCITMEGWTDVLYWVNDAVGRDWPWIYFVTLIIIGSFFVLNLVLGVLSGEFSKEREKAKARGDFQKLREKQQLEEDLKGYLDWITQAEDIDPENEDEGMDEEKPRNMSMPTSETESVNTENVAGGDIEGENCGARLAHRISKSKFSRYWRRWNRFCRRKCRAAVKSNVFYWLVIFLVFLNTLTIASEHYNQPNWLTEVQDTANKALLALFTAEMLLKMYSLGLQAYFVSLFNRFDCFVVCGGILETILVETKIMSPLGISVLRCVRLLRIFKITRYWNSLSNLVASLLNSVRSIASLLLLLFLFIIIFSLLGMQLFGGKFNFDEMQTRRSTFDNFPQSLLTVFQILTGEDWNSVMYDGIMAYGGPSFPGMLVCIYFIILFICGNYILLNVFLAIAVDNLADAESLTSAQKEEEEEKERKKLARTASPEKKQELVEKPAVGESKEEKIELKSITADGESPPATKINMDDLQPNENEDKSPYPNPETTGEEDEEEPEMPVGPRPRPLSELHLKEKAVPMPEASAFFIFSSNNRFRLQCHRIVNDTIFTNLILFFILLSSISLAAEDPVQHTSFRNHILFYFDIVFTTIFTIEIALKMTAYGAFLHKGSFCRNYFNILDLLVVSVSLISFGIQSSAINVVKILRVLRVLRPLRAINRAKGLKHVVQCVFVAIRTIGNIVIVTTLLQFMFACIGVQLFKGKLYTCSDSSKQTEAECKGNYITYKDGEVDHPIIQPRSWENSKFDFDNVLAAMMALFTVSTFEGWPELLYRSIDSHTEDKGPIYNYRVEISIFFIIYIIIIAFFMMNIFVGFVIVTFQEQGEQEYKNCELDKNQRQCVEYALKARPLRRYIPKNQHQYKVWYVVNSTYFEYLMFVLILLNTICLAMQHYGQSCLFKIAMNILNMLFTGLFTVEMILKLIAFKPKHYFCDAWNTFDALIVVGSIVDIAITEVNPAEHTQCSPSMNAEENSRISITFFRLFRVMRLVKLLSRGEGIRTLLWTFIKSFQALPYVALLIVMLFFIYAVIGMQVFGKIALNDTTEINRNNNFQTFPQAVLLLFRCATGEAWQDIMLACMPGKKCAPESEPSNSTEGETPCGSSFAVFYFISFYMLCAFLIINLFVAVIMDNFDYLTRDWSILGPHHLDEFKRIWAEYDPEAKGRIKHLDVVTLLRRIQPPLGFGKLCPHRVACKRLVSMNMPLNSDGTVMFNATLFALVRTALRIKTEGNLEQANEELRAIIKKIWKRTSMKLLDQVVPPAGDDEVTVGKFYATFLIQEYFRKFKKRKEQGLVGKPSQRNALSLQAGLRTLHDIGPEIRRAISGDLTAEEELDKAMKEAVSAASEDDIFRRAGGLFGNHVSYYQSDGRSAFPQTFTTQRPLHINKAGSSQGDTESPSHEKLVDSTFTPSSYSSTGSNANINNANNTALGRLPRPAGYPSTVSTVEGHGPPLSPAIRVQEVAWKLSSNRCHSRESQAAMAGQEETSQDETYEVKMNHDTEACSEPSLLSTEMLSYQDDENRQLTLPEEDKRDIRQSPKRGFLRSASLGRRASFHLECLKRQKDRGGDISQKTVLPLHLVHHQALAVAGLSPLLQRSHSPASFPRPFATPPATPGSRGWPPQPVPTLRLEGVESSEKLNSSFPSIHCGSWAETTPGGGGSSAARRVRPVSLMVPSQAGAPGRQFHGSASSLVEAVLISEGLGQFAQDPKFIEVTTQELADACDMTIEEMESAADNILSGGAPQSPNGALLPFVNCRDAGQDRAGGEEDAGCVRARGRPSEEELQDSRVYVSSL

For data set [1], the target named is T1, CaV1.2 (Homo sapiens, UniProt Q13936).
Data set [2] addresses T1, CaV1.2. The experiment in a line: cell-based.

As usually defined, the IC50 is the concentration at which inhibition is half-maximal. As to `O=C(Nc1ccc([N+](=O)[O-])cc1Cl)c1cc(Cl)ccc1O` [Niclosamide], the “maximal % inhibition (efficacy), CaV1.2 in CHO cells” value on CaV1.2 [1] (-50/-20 mV, 300 nM Bay K8644) turned out to be 76.1%. Also, the “Lower potency at CaV1.2 in CHO cells than for neuronal LTCCs” value on CaV1.2 [1] (CHO CaV1.2 vs rat cortical neurons) is recorded as “~ fourfold”. Further, it took 715 ± 49.2 nM to reach half-maximal inhibition against CaV1.2 [2] (IC50).
